The results in this text go back to US12351648B2, “Methods of inhibiting MASP-2 for the treatment and/or prevention of coronavirus-induced acute respiratory distress syndrome” (priority 2020, dated 2025).

The chains behind the UniProt entries cited, without tags or fusion partners. Residues count along the entry.
UniProt O00187, 287-686: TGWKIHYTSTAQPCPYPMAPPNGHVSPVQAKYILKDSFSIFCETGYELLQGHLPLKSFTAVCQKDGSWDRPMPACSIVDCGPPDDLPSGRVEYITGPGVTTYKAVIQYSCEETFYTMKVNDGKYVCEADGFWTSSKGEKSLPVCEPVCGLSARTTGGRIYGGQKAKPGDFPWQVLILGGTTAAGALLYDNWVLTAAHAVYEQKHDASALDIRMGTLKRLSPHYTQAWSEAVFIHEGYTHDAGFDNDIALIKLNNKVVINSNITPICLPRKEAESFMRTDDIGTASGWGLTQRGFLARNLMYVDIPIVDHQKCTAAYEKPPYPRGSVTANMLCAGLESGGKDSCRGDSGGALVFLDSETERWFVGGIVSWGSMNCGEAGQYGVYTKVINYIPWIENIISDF

SMILES strings stand for the structures. Like-named read-outs stand apart in the source and are kept apart here. Bounds are passed on as bounds.

In this assay the target is MASP-2 (CCP1-CCP2-SP) (Homo sapiens (Human), UniProt O00187). Put plainly: Enzymatic assay for MASP-2 (fluorogenic substrate). In kind it is biochemical.

For `Cc1nc(N)ccc1CNC(=O)[C@@H](C)NC(=O)[C@H]1C[C@H](c2cccc(-c3ccccc3)c2)CN1` [Compound 1359], the Ki (usually a dissociation constant, usually derived from enzyme kinetics or from competition with a known ligand) (MASP-2 Ki (μM)) is 0.5 to 2.5 µM.

With `Cc1nc(N)ccc1CNC(=O)[C@H](C)NC(=O)[C@H]1C[C@H](c2cccc(-c3ccccc3)c2)CN1` [Compound 1360], the Ki (read-out: MASP-2 Ki) is under 0.5 µM.
